{"sequences": {"note": "Sequences of proteins named here, by UniProt entry; tags and fusion partners are left off.", "UniProt Q13393, whole entry, looked up": "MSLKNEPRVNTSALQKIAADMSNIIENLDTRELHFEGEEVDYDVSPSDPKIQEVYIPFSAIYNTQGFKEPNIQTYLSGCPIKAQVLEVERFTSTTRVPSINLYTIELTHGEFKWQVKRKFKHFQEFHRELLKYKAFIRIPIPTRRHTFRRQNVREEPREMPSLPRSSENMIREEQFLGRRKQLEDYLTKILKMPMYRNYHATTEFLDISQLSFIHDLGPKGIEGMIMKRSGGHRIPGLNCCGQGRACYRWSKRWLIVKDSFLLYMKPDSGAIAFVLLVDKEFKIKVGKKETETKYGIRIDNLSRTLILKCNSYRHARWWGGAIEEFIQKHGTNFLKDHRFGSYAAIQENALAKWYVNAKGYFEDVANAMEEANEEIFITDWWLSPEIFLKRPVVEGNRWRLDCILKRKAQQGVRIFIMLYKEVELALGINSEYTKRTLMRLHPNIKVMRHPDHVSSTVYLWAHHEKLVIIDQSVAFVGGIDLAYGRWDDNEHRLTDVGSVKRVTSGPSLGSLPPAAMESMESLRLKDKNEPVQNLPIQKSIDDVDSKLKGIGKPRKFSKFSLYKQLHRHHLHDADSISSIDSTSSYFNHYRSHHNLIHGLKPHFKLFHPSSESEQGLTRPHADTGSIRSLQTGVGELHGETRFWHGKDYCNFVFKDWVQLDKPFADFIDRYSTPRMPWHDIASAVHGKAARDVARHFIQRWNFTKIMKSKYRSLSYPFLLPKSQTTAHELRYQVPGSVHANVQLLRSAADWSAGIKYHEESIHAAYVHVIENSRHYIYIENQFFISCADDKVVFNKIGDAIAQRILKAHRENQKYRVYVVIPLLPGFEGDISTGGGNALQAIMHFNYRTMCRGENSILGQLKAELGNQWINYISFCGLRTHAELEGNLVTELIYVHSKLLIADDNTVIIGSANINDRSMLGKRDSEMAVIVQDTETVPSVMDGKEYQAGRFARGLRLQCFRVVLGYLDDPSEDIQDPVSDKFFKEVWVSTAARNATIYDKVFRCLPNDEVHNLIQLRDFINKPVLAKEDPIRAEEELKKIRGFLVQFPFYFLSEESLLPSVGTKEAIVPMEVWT"}, "source": "PubChem BioAssay AID602144", "about": "(Vanderbilt Specialized Chemistry Center, 2011)", "biological_target": "Phospholipase D1 (Homo sapiens) (UniProt Q13393)", "test": "cellular phospholipase D1 activity inhibition – Calu-1 cells, single concentration (AID 602144);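 note: tested at 200 nM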", "details": "cellular PLD1 activity, active compounds read low", "note": "Only a part is listed here, and it is no random draw. Active and inactive are the calls of the source. Cut-off read from the data, not from the text of the source: active = remaining activity below about 50%; inactive = the rest."}
{"smiles": "O=C(CN1CCC(n2c(=O)[nH]c3ccccc32)CC1)c1ccccc1", "values": [{"measurement": "remaining activity", "result": "inactive: 119%"}]}
